{
  "source": "patent US9139658B2",
  "about": "“Medicament for treatment cancer” (SUMITOMO DAINIPPON PHARMA CO., LTD., priority 2000, dated 2015)",
  "system": "Human breast cancer cell line BT-474",
  "assay": "Evaluation of combination effects in vitro (WST-1 proliferation, Combination Index by Pegram method)",
  "format": "cell-based",
  "method": "The effects of the combined use were evaluated by calculating a Combination Index (CI) following a method of Pegram et al. (M. Pegram et al., Oncogene, 18, 2241-2251 (1999)). Human breast cancer cell line BT-474 (a cell line in which HER2 is highly expressed) was obtained from ATCC (American Type Culture Collection). In a medium comprising equal amount of D-MEM (Dulbecco's Modified Eagle Medium) medium and F-12 (Nutrient Mixture F-12) medium which further contains 2.5 mM L-glutamine, 10% bovine fetal serum (FCS) and 2.5 μg/ml amphotericin B, human breast cancer cell line BT-474 was subcultured. The culture was carried out in an incubator with 5% CO2 at 37° C. This medium was also used in the following experiments. HerceptinTM was dissolved in a dissolution solution attached thereto to prepare a 21 mg/ml stock solution. Thereafter, the solution was used after 2 fold serial dilutions with the medium. […] Doxorubicin hydrochloride was obtained from Kyowa Hakko Kogyo Co., Ltd. A 2 mg/ml solution was prepared by adding 5 ml of sterile water to a 10 mg vial, and the solution was used. Human breast cancer cell line BT-474 on subculture were subjected to a trypsin treatment, suspended in the medium, and seeded on a 96-well plate. The seeding density was set to be 1×10^4 cells/0.1 ml/well. After seeding, cells were cultured overnight in an incubator with 5% CO2 at 37° C. (Day 0). […] The experiments were conducted with n=3 for the agent-treated group, and with n=6 for the non-treated (control) group. Until Day 4, culture was conducted in an incubator with 5% CO2 at 37° C. […] Thereafter, culture was conducted in an incubator with 5% CO2 at 37° C. for 2-4 hours. Absorbance of the culture was then measured with MICROPLATE READER Model 3550-UV (BioRad), and living cell number was measured. […] absorbance: […] The value of X intercept represents a common logarithm of an IC50 value (concentration of the agent required for 50% inhibition of the cell proliferation). […] CI and inhibition rate of proliferation fa were calculated as described above.",
  "data": [
    {"substance": "Herceptin: humanized anti-HER2 antibody Trastuzumab (Herceptin™, Genentech, Ltd.)", "values": [
      {"measurement": "D2 (concentration of Herceptin in combination required for fa)", "setting": "combination with amrubicin hydrochloride, dosage ratio 40:1, fa 0.9, BT-474", "value": 0.032, "unit": "µg/mL"},
      {"measurement": "D2 (concentration of Herceptin in combination required for fa)", "setting": "combination with amrubicinol hydrochloride, dosage ratio 2:1, fa 0.9, BT-474", "value": 0.119, "unit": "µg/mL"},
      {"measurement": "D2 (concentration of Herceptin in combination required for fa)", "setting": "combination with amrubicinol hydrochloride, dosage ratio 4:1, fa 0.9, BT-474", "value": 0.053, "unit": "µg/mL"},
      {"measurement": "D2 (concentration of Herceptin in combination required for fa)", "setting": "combination with amrubicinol hydrochloride, dosage ratio 8:1, fa 0.9, BT-474", "value": 0.035, "unit": "µg/mL"},
      {"measurement": "D2 (concentration of Herceptin in combination required for fa)", "setting": "combination with doxorubicin hydrochloride, dosage ratio 2:1, fa 0.9, BT-474", "value": 0.187, "unit": "µg/mL"},
      {"measurement": "Df2 (concentration of Herceptin as single agent required for fa)", "setting": "single agent, fa 0.9, BT-474", "value": 6.312, "unit": "µg/mL"}
    ]}
  ]
}
